Data published in PMC11117691, “Flipping the GPCR Switch: Structure-Based Development of Selective Cannabinoid Receptor 2 Inverse Agonists” (ACS Central Science, 2024).

By UniProt entry, the sequences of proteins in these tests, tags left out.
UniProt P34972, whole entry: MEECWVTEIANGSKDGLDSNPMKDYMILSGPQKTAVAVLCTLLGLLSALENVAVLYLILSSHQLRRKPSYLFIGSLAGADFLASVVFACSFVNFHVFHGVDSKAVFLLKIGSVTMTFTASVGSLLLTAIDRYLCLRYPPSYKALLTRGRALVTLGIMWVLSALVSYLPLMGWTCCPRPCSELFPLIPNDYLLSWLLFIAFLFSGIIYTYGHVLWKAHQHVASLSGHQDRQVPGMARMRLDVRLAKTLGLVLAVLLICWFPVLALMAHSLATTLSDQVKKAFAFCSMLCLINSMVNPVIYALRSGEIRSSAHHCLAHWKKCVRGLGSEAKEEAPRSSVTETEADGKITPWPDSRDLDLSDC
UniProt P21554, whole entry: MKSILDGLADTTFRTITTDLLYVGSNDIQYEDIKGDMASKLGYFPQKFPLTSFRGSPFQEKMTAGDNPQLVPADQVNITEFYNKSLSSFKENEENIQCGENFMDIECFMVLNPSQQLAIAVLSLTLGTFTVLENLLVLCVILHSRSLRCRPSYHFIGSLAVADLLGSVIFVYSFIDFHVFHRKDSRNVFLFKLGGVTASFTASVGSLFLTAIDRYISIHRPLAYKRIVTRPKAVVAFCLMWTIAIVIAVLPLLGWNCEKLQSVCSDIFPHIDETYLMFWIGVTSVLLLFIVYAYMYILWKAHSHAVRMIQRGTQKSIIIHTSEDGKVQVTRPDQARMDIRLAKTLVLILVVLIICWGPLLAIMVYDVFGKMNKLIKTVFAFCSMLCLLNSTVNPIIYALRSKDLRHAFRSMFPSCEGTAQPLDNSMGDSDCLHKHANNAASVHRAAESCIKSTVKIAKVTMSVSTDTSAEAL

Legend:
hCB2R [1] = target: T1, hCB2R (Homo sapiens, UniProt P34972); experiment: cAMP HTRF assay in hCB2R-CHO cells; settings: for pEC50 (cAMP): hCB2R-CHO cells, forskolin stimulated, mean N = 3
hCB1R = hCB1R (Homo sapiens, UniProt P21554); experiment: TR-FRET saturation binding assay at CB1R; settings: selectivity for CB2R over CB1R, 37 °C
Method: The binding selectivity of fluorescent probes was tested against the closely related CB1R in a saturation binding assay at 37 °C using membrane preparations derived from HEK293 cells expressing hCB1R (Table 1). […] Collectively, the excellent affinity and selectivity of a range of physicochemically distinct substituents and fluorophores highlight the versatility of novel platform ligand (R)-1.

hCB2R [2] = target: T1, hCB2R; experiment: Radioligand binding assay with [3H]-CP55,940; settings: read-out: Ki CB2R; [3H]-CP55,940 competition, CHO-hCB2R membranes, 2 h at 30 °C
[3] = tested on: CB2R-mediated phosphorylation of endogenous ERK1/2; experiment: AlphaScreen SureFire phospho-ERK assay in CB2R inducible HCC1954 cells; settings: 1 μM, 30 min, versus vehicle
hCB2R [4] = target: T1, hCB2R; experiment: TR-FRET saturation binding assay at CB2R; settings: read-out: Kd CB2R, 37 °C, hCB2R-HEK293 membranes, mean N = 3
hCB2R [5] = target: T1, hCB2R; experiment: TR-FRET kinetic binding assay at CB2R; settings: 37 °C, hCB2R-HEK293 membranes, mean N = 3
[6] = normalized to agonist CP-55,940 response (100%) and basal level (0%)

**Q.** What does the source list for `COc1cc(C(C)(C)[C@@H](CCCCCN=[N+]=[N-])c2ccccc2)cc(OC)c1[C@@H]1C=C(CNC(=O)CCCCCCNc2ccc([N+](=O)[O-])c3nonc23)[C@@H]2C[C@H]1C2(C)C`?
**A.** pEC50 (cAMP) (hCB2R [1]): 4.98; Emax (cAMP) (hCB2R [1]; normalized to inverse agonist AM10257 response (0%) and basal level (100%)): +44%

**Q.** Which results are given for `COc1cc(C(C)(C)[C@H](CCCCCN=[N+]=[N-])c2ccccc2)cc(OC)c1[C@@H]1C=C(CNC(=O)CCCCCCNc2ccc([N+](=O)[O-])c3nonc23)[C@@H]2C[C@H]1C2(C)C`?
**A.** pEC50 (cAMP) (hCB2R [1]): 5.91; Emax (cAMP) (hCB2R [1]; [6]): –40%

**Q.** For `COc1cc(C(C)(C)[C@H](CCCCCN=[N+]=[N-])c2ccccc2)cc(OC)c1[C@@H]1C=C(CNC(=O)CCCCCNC(=O)c2ccc3c(c2)C2(OC3=O)c3ccc(O)cc3Oc3cc(O)ccc32)[C@@H]2C[C@H]1C2(C)C`, which “Kd ratio (CB1R/CB2R)” value (hCB1R) is on record?
**A.** 42–142 and 42

**Q.** How did the “pEC50 (cAMP)” value (hCB2R [1]) turn out when `C#CCCC(=O)NCC1=C[C@@H](c2c(OC)cc(C(C)(C)CCCCCCN=[N+]=[N-])cc2OC)[C@H]2C[C@@H]1C2(C)C` was run?
**A.** 8.47

**Q.** What about the “Emax (cAMP)” value (hCB2R [1]; [6]) of the same molecule?
**A.** +112%

**Q.** With `CCN(CC)c1ccc2cc(/C=C/c3ccc(S(=O)(=O)[O-])c[n+]3CCCCCC(=O)NCC3=C[C@@H](c4c(OC)cc(C(C)(C)[C@H](CCCCCN=[N+]=[N-])c5ccccc5)cc4OC)[C@H]4C[C@@H]3C4(C)C)c(=O)oc2c1` as the molecule, how does the “pEC50 (cAMP)” value (hCB2R [1]) read?
**A.** 7.15

**Q.** And the “Emax (cAMP)” value (hCB2R [1]; [6])?
**A.** –31%

**Q.** What about the Ki (hCB2R [2]) of the same molecule?
**A.** 8.26 nM

**Q.** What about the ERK1/2 phosphorylation level ([3]; CB2R expression induced with DOX (1 μg/mL)) of the same molecule?
**A.** no effect

**Q.** And the ERK1/2 phosphorylation level ([3]; absence of CB2R expression inducer (DOX))?
**A.** remained the same

**Q.** And the Kd (hCB2R [4])?
**A.** 18.9 nM

**Q.** For `COc1cc(C(C)(C)[C@H](CCCCCN=[N+]=[N-])c2ccccc2)cc(OC)c1[C@@H]1C=C(CNC(=O)CCCCCNC(=O)c2ccc3c(c2)C(=O)OC32c3ccc(N(C)C)cc3Oc3cc(N(C)C)ccc32)[C@@H]2C[C@H]1C2(C)C`, which koff (hCB2R [5]) is on record?
**A.** 1.08 10^–2 min^–1

**Q.** And the kon (hCB2R [5])?
**A.** 3.60 10^6 M^–1 min^–1

**Q.** What about the “τ (receptor residence time)” value (hCB2R [5]) of the same molecule?
**A.** 92.6 min

**Q.** What about the Kd (hCB2R [5]; read-out: kinetic Kd) of the same molecule?
**A.** 3 nM

**Q.** What does the source list for `CCN(CC)c1ccc2cc(/C=C/c3ccc(S(=O)(=O)[O-])c[n+]3CCCCCC(=O)NCC3=C[C@@H](c4c(OC)cc(C(C)(C)[C@@H](CCCCCN=[N+]=[N-])c5ccccc5)cc4OC)[C@H]4C[C@@H]3C4(C)C)c(=O)oc2c1`?
**A.** pEC50 (cAMP) (hCB2R [1]): 6.47; Emax (cAMP) (hCB2R [1]; [6]): –37%

Several values for one entry are separate records, joined by “and”; a condition that tells them apart may be missing. Equal values may be shown once.
